This assay concerns the target Human recombinant PTP1B (Homo sapiens, UniProt P18031). The assay is described as follows: Inhibition of tri-phosphorylated insulin receptor dodecaphosphopeptide dephosphorylation by hPTP1B. In kind it is biochemical.

The chains behind the UniProt entries cited, without tags or fusion partners. Where a name states a change or a piece, a line headed by the entry shows the natural chain unless it says otherwise.
UniProt P18031: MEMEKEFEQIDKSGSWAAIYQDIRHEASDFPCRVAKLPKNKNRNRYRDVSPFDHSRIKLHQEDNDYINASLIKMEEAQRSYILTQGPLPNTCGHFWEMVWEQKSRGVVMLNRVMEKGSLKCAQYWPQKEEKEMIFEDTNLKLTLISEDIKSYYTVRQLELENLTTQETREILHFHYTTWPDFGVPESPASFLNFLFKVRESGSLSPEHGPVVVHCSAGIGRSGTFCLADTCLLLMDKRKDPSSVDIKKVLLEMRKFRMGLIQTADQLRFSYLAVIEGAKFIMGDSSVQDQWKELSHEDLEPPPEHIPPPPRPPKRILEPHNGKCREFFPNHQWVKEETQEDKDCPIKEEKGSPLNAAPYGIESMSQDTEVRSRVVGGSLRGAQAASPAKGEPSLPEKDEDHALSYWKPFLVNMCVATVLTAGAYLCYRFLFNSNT

pIC50: −log10 of the molar value.

Broadly, the pIC50 is the IC50 on a negative log10 scale, so that one unit is a factor of ten. Consider Ammonium molybdate tetrahydrate, for which the pIC50 is 5.06.

Source of the values: US6110962A, “11-aryl-benzo[B]naphtho[2,3-D]furans and 11-aryl-benzo[B]naphtho[2,3-D]thiophenes useful in the treatment of insulin resistance and hyperglycemia” (American Home Products Corporation, priority 1999, dated 2000).
